## Binding of CDR-mutated scFvs to a peptide of the spike HR2 region

All variants were tested on one target, the spike HR2 peptide PDVDLGDISGINAS (SARS-CoV-2).

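The starting antibody came from a phage panning campaign against this peptide. Library AAYL50 holds single substitutions and randomly drawn double and triple substitutions in the CDRs. The scFvs were displayed on barcoded MATa yeast, the peptide on MATalpha yeast. Mating (16 h, 30 °C) was followed by selection of diploids and sequencing of their barcodes. A regression on co-assayed BCL2-family reference pairs converts the normalised counts of each replicate to an apparent Kd. The assay was run in three technical replicates.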

Ab-14 is the parent antibody, in scFv form: VH, then a 15-residue (Gly4Ser)3 linker, then VL. The heavy chain is unchanged in all variants.
VH: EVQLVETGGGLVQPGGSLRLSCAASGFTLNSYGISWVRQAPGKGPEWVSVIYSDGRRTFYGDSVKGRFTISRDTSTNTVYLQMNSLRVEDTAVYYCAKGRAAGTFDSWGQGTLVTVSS
VL: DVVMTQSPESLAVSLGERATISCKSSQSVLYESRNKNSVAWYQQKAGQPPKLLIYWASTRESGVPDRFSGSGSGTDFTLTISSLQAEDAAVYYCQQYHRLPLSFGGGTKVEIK

Positions count from residue 1 of the parent VL; S26K puts K in place of S.
Numbers give log10(Kd / nM), so 0 is 1 nM and 3 is 1 µM. Smaller is tighter.
The mean shown is taken over the replicates in which the pair was detected.
A pair that was not seen in that replicate is written "ND"; this usually means weak binding, but a binder can also be missed.
In this assay the parent's reference entry averaged 0.65; its copy inside this library read 1.68.

{"changes": "S26K L30N A40R", "replicates, log10 nM": "ND / ND / ND", "log10 Kd (nM), mean": "ND", "signal with controls": "0/9"}
{"changes": "S25C W56P Y97W", "replicates, log10 nM": "ND / ND / ND", "log10 Kd (nM), mean": "ND", "signal with controls": "2/9 (4.25)"}
{"changes": "A40K Q95I R99C", "replicates, log10 nM": "ND / ND / ND", "log10 Kd (nM), mean": "ND", "signal with controls": "2/9 (5.13)"}
{"changes": "E32I R34D V39L", "replicates, log10 nM": "1.28 / 1.18 / 1.26", "log10 Kd (nM), mean": "1.24", "signal with controls": "0/9"}
{"changes": "Q27W A57V R99M", "replicates, log10 nM": "2.57 / 3.08 / 2.73", "log10 Kd (nM), mean": "2.79", "signal with controls": "1/9 (3.21)"}
{"changes": "S38A Y97D L102Y", "replicates, log10 nM": "ND / ND / ND", "log10 Kd (nM), mean": "ND", "signal with controls": "0/9"}
{"changes": "W56P T59R L100D", "replicates, log10 nM": "4.97 / ND / ND", "log10 Kd (nM), mean": "4.97", "signal with controls": "2/9 (3.64)"}
{"changes": "A57R S62M", "replicates, log10 nM": "ND / ND / ND", "log10 Kd (nM), mean": "ND", "signal with controls": "2/9 (3.99)"}
{"changes": "V39P L100N S103I", "replicates, log10 nM": "4.82 / ND / 5.27", "log10 Kd (nM), mean": "5.04", "signal with controls": "4/9 (4.99)"}
{"changes": "S28I V39I Q96F", "replicates, log10 nM": "ND / ND / ND", "log10 Kd (nM), mean": "ND", "signal with controls": "0/9"}
{"changes": "E61W H98E S103H", "replicates, log10 nM": "3.23 / 3.19 / 3.63", "log10 Kd (nM), mean": "3.35", "signal with controls": "5/9 (4.15)"}
{"changes": "S28L R99F", "replicates, log10 nM": "ND / 2.69 / 3.73", "log10 Kd (nM), mean": "3.21", "signal with controls": "6/9 (4.12)"}
{"changes": "W56Y L100E L102S", "replicates, log10 nM": "4.48 / ND / ND", "log10 Kd (nM), mean": "4.48", "signal with controls": "3/9 (4.04)"}
{"changes": "S25K W56G Y97G", "replicates, log10 nM": "-0.41 / -0.04 / -0.24", "log10 Kd (nM), mean": "-0.23", "signal with controls": "4/9 (4.26)"}
{"changes": "R34C K36T L100F", "replicates, log10 nM": "1.63 / 1.54 / 1.59", "log10 Kd (nM), mean": "1.59", "signal with controls": "2/9 (3.50)"}
{"changes": "S26I L30D E32V", "replicates, log10 nM": "2.17 / 2.04 / 2.18", "log10 Kd (nM), mean": "2.13", "signal with controls": "0/9"}
{"changes": "S28L S58A R60Q", "replicates, log10 nM": "5.99 / ND / 5.46", "log10 Kd (nM), mean": "5.73", "signal with controls": "1/9 (3.56)"}
{"changes": "K36A W56S", "replicates, log10 nM": "2.29 / ND / ND", "log10 Kd (nM), mean": "2.29", "signal with controls": "0/9"}
{"changes": "S25H V29Y S38Y", "replicates, log10 nM": "1.57 / 2.60 / 1.88", "log10 Kd (nM), mean": "2.02", "signal with controls": "0/9"}

Excerpt, the first 2 entries:

{"changes": "S26K L30N A40R", "replicates, log10 nM": "ND / ND / ND", "log10 Kd (nM), mean": "ND", "signal with controls": "0/9"}
{"changes": "S25C W56P Y97W", "replicates, log10 nM": "ND / ND / ND", "log10 Kd (nM), mean": "ND", "signal with controls": "2/9 (4.25)"}

Empty control strains, which show no peptide, gave a signal in 18% of pairings with library AAYL50; the median was 4.19 and 95% of these signals were weaker than 2.99. No background was subtracted. For each scFv, signals with the empty controls are counted beside the result, with their mean in brackets.

Values reported by Engelhart et al. 2022, doi:10.1038/s41597-022-01779-4 (FLAb copy).